Results on 26 compounds are retold here after PubChem BioAssay AID1259318 (Sanford-Burnham Center for Chemical Genomics, 2017).

Chains of the proteins cited; added tags and fusions are not shown.
UniProt P20393, whole entry, looked up: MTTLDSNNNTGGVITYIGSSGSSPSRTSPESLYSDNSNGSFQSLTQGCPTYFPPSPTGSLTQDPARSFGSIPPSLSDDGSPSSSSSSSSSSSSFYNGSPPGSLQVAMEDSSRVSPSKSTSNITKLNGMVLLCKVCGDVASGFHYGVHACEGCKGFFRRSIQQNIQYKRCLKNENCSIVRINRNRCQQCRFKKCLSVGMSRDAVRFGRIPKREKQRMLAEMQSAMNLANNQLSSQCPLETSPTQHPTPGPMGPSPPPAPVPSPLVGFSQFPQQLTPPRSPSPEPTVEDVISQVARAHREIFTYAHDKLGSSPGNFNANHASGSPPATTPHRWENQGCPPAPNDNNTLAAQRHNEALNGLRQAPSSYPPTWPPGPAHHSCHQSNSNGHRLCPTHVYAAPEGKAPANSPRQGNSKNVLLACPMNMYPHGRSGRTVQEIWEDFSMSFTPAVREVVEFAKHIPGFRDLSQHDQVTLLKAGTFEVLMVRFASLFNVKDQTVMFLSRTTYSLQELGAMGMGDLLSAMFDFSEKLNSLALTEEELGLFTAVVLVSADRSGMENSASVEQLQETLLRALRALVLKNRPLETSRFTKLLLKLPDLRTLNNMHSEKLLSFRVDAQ

SMILES strings stand for the structures. Only a part is listed here, and it is no random draw. Some results for these compounds are left out of this collection, so the calls shown say nothing about other tests. Calls of active or inactive are those of the source.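 Rule for the calls: active = activity above about 14% (limit read from the data; passing the limit was not always enough); inactive = the rest.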

The experiment concerns the target Nuclear receptor subfamily 1 group D member 1 (Homo sapiens) (UniProt P20393). The experiment in a line: modulators of Rev-erb alpha DNA binding, primary screen, biochemical, FITC-DNA, fluorescence polarization, uHTS (AID 1259318).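 Note: 0% = DMSO wells with 35 nM protein and 100% = DMSO wells with 750 nM protein.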 To be noted: Rev-erbα–FITC-DNA binding, 90 min, at 10 µM, hits give high values. Background: In fluorescence polarisation assays a small probe gives low polarisation when free and higher when bound to something large.
In the case of `CC(C)N1C(=O)CC2(CCN(CCOC(=O)C(O)(c3ccccc3)c3ccccc3)CC2)C1=O`, the activity was inactive: -3.11%.

In the case of `COc1cc(SC)ccc1C(=O)NCC1(N(C)C)CCCCC1`, the activity was inactive: -7.58%.

On to `CCN(CC)CC(C)C(C)OC(=O)C(O)(c1ccccc1)c1ccccc1` (stereo unspecified), for which the activity is inactive: -5.57%.

On to `Cc1ccc(C(=O)NCC2(N3CCCCC3)CCCCC2)cc1`, for which the activity is inactive: 10.6%.

Consider `O=C(NCC1(N2CCCCC2)CCCCC1)c1cc([N+](=O)[O-])ccc1Cl`, for which the activity was inactive: -1.27%.

As for `CN1[C@@H]2CC[C@H]1CC(OC(=O)C(O)(c1ccccc1)c1ccccc1)C2` (stereo partly specified), the activity is inactive: 5.85%.

For `O=C(NCC1(N2CCCCC2)CCCCC1)c1cc(F)c(F)cc1Cl`, the activity is inactive: -4.27%.

For `C=CCN1CCN(CCOC(=O)C(O)(c2ccccc2)c2ccccc2)CC1`, the activity was inactive: 0.79%.

With `O=C(NCC1(N2CCCCC2)CCCCC1)c1cccc(Br)c1`, the activity is inactive: -3.81%.

Take `CCN1CCCC(OC(=O)C2(O)c3ccccc3C=Cc3ccccc32)C1` (stereo unspecified): the activity is inactive: -2.7%.

Regarding `Cc1cc(C(=O)NCC2(N3CCCCC3)CCCCC2)ccc1[N+](=O)[O-]`, the activity was inactive: -0.46%.

In the case of `COc1ccc(C(=O)NCC2(N(C)C)CCCCC2)cc1`, the activity was inactive: -0.69%.

In the case of `CN(C)c1ccc(C(=O)NCC2(N(C)C)CCCCC2)cc1`, the activity is inactive: 1.75%.

For `CN(C)C1CCCC1OC(=O)C(O)(c1ccccc1)c1ccccc1` (stereo unspecified), the activity was inactive: -1.07%.

As for `Cc1ccccc1C(=O)NCC1(N2CCCCC2)CCCCC1`, the activity is inactive: -1.86%.

Consider `COc1ccc(Cl)cc1C(=O)NCC1(N(C)C)CCCCC1`, for which the activity is inactive: 0.27%.

`COc1cccc(C(=O)NCC2(N3CCCCC3)CCCCC2)c1`: the activity was inactive: -0.58%.

As for `O=C(NCC1(N2CCCCC2)CCCCC1)c1cccc(Cl)c1`, the activity was inactive: 0.14%.

Consider `CN(C)C1(CNC(=O)c2ccc(Br)cc2)CCCCC1`, for which the activity was inactive: 6.37%.

For `COc1cc(C(=O)NCC2(N(C)C)CCCCC2)c([N+](=O)[O-])cc1OC`, the activity is inactive: 0.75%.

With `COc1ccc(Br)c(C(=O)NCC2(N3CCCCC3)CCCCC2)c1`, the activity was inactive: -1.95%.

As to `C=C(C)C#CC(O)(C(=O)OC1CCN(C)CC1)c1ccccc1` (stereo unspecified), the activity was inactive: -1.85%.

For the compound `CN(C)c1cccc(C(=O)NCC2(N(C)C)CCCCC2)c1`, the activity is inactive: -5.37%.

Turning to `O=C(OCCN1CCCC1)C(O)(c1ccccc1)c1ccccc1`, the activity is inactive: -9.21%.

For `CC(C)Oc1ccc(C(=O)NCC2(N(C)C)CCCCC2)cc1`, the activity was inactive: -4.72%.

`O=C(OC1CN2CCC1CC2)C(CO)(c1ccccc1)c1ccccc1` (stereo unspecified): the activity is inactive: 0.59%.
